The values below are quoted from earlier work in patent US11224633B2, “Kit for treating sepsis and/or any systemic (SIRS) or damaging cellular hyperinflammation” (priority 2015, dated 2022).

For the data set the following is noted: in vivo; cited from earlier work.

As to `[Se]` [selenium], the “NOAEL No Adverse Effect Level determined in nutrition” value was 800 µg.
